{"source": "patent US9938245B2", "about": "(THE TRUSTEES OF COLUMBIA UNIVERSITY IN THE CITY OF NEW YORK, priority 2014, dated 2018)", "tested_on": "lipid peroxides", "test": "Lipid peroxide detection using BODIPY-C11", "type": "cell-based", "settings": "BJeLR and other BJ-derived cells", "data": [{"smiles": "O=[As]c1ccccc1", "note": "(stereo not shown)", "values": [{"measurement": "generation of lipid peroxides (BODIPY-C11)", "value": "showed weak generation of lipid peroxides"}]}]}
